Like-named read-outs stand apart in the source and are kept apart here.

Sequences of proteins named here, by UniProt entry; tags and fusion partners are left off. A change or cut given only in a name is not applied to a line headed by its entry.
UniProt Q62976: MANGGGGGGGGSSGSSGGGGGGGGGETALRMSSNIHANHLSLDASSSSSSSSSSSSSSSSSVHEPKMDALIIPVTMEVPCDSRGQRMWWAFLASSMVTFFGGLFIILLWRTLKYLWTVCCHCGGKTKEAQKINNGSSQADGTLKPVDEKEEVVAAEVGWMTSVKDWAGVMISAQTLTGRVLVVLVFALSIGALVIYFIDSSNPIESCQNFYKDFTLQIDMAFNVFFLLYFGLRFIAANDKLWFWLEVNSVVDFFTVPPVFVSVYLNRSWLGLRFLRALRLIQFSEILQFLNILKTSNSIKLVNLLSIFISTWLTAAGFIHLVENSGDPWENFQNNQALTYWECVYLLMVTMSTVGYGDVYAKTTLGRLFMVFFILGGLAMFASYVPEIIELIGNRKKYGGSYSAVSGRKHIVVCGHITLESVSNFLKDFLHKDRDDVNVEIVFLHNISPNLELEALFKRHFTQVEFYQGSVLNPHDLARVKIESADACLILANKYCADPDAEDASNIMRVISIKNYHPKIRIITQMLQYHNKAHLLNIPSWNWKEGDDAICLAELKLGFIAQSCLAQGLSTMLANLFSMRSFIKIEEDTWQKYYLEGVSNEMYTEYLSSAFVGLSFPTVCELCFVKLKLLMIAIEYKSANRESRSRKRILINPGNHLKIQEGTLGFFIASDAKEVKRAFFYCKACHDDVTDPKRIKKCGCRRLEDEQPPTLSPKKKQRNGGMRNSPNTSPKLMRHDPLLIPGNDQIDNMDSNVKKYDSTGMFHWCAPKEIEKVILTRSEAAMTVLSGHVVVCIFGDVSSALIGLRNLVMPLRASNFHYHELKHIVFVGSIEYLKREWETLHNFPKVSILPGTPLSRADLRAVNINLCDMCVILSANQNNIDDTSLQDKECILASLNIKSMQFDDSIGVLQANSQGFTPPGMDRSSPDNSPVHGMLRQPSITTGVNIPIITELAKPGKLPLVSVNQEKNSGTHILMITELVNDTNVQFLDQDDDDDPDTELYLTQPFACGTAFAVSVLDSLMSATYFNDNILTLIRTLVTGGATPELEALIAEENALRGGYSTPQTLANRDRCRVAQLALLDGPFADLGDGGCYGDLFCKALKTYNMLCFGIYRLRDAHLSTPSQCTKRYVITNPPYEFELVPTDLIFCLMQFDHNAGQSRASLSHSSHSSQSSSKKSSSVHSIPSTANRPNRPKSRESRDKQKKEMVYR

The target of the assay is T1, BKαβ1 (Rattus norvegicus, UniProt Q62976).
T1 construct: expressed in transfected cells; host or cells: HEK293
Briefly: Concentration-dependent block of macroscopic currents by ChTX in HEKBKαβ1, in the absence and presence of pimaric acid. The assay is classed as cell-based. The conditions noted are these: for Kd: read-out: Kd (apparent dissociation constant of ChTX); for IC50: read-out: half-maximum concentration of ChTX for the block of BK channel current. The method, then:
To determine whether pimaric acid changes the binding of charybdotoxin (ChTX) to BK channels, the concentration-dependent block of macroscopic currents by ChTX was measured in HEKBKαβ1, in the absence and presence of 10 μm pimaric acid. The outward currents elicited by depolarization from −60 mV in 10 mV steps were enhanced at potentials positive to −20 mV. The current at +40 mV was increased from 1214±153 to 2527±448 pA (n=5, p<0.05). […] The remaining components in the presence of 100 nM ChTX include native delayed rectifier K^+ currents and unblocked BKαβ1. The currents at +40 mV in the presence of 10 μm pimaric acid was reduced from 2527±448 pA to 499±90 pA (p<0.01 versus before the application of and in the presence of 10 μm pimaric acid). Cumulative addition of ChTX in the range of 3 to 100 nM reduced outward current in a concentration dependent manner. A concentration-response relationship for ChTX-induced block was also obtained in the absence of pimaric acid; the current amplitude at +40 mV was reduced from 1233±226 to 205±46 pA by addition of 100 nM ChTX (n=5, p<0.01). The normalized data were well fitted with the Hill equation modified for the concentration-response relationship. Iblock=(1−C)/{1+(Kd/[ChTX])^nH}, where Kd is the apparent dissociation constant of ChTX, [ChTX] is the concentration of ChTX, nH is the Hill coefficient, and C is the constant. […] The C values which may correspond to the native K^+ currents insensitive to ChTX, were 0.077±0.0226 and 0.0965±0.0388 (p>0.05), respectively. The relationship in the presence of 10 μm pimaric acid was almost identical with that in its absence. The half-maximum concentrations of ChTX for the block of BK channel current were almost identical each other in the absence and presence of pimaric acid (7.66 and 6.72 nM).

Take charybdotoxin [ChTX]: the Kd runs as follows: (absence of pimaric acid) 7.66 ± 2.66 nM; (presence of 10 μm pimaric acid) 6.72 ± 2.26 nM. Moreover, the IC50 amounted to 7.66 nM (absence of pimaric acid) and 6.72 nM (presence of pimaric acid).
